Measurements taken from patent publication US20180140703A1, “TUMOR RADIOSENSITIZATION WITH ANTIBODY CONJUGATES” (The Regents of the University California, priority 2016, published 2018).

Legend:
[1] = test system: CALU3 (EGFR+, HER2+) cells; test: Neutral comet assay; format: cell-based, human; conditions: 6 Gy, 2 nM overnight, vs vehicle or 20 nM antibody
Protocol: (§1) Cells were collected 15 min post IR, suspended in agarose gel and lysed per assay directions (Trevigen). Samples underwent electrophoresis under neutral conditions and were then stained with Sybr Green. Comet tails were counted in multiple fields (>60 cells per sample) and analysed using CometScore (TriTek Corp). Comet tail length was normalized to vehicle-treated, non-irradiated cells.

CAL-27 xenografts = test: Tumour xenograft drug measurement (LC-MS/MS); format: in vivo, mice; conditions: 2 nmol C-MMAE or T-MMAE i.v.
Protocol: Tumours were excised, weighed and homogenized in 10 volumes of PBS with a point sonicator (Fisher Scientific) using an amplitude range of 5-15% for a maximum of 20 s while on ice. The homogenates were centrifuged (14 g, 10 min), then the supernatants were collected and diluted two-fold by addition of 2% acetic acid in acetonitrile, then centrifuged again (14 g, 10 min). MMAE concentration was determined by LC-MS/MS with Luna-2 C18 column and Agilent Trap XCT mass spectrometer and extracted fragment ion currents at 686.4 and 506.4 were integrated and combined to improve sensitivity.

low EGFR LN-229 tumours = test: In vivo tumour xenograft optical imaging (Cy5); parameters: species or system mice; conditions: 0.5 nmol Cy5-labelled C-MMAE i.v.
Protocol: (§2) All animal work was done in compliance with the University of California San Diego Institutional Animal Use and Care Committee. Six-to-eight-week-old female athymic nu/nu mice purchased from the University of California San Diego Animal Care Program breeding colony were injected subcutaneously into the bilateral upper thighs with 5×106 CAL-27, SQ9-G, SCC-35, SCC-61, A549, HCT-116, OE19 or LN229 tumour cells in a 1:1 Matrigel (BD) and PBS solution. After tumours grew to >100 mm3 they were injected with 0.5 nmol of Cy-labelled cetuximab-MMAE, trastuzumab-MMAE (.'4 and 3.9 mg kg^−1, respectively) as described above. For imaging, mice were anaesthetized (1:1 mixture of 100 mg ml—1 of ketamine and 5 mg ml—1 of midazolam). Animals were imaged using a Maestro Small Animal Imager (CRI) with excitation filter of 620/22 and 645 nm long-pass emission filter with dichroic filter tuned to 670 nm. Imaging was done both with skin on and after skin removal to decrease autofluorescence and scattering. […] At various time points after injection, the tail was pricked and a small volume (5-10 μl) of blood was collected in a heparinized hematocrit tube. Fluorescent images were taken using the Maestro, with the filters mentioned above, and the integrated fluorescent intensity was measured using Image J.

[2] = test system: EGFR expressing tumours HNC (CAL-27, SCC-61, SCC-35 and SQ-9G), NSCLC (A549) and colorectal (HCT-116); test: In vivo tumour xenograft optical imaging (Cy5); parameters: species or system mice
Protocol: as §2

[3] = test system: EGFR expressing CAL-27, A549 and CALU3 cells; test: Cy5 fluorescence imaging of Cy5-labelled ADC (confocal), EGFR panel; format: cell-based, human; conditions: 2 nM Cy5-labelled ADC, 2 h
Protocol: (§3) Cells were exposed to Cy5-labelled cetuximab-MMAE or trastuzumab-MMAE for 30 min in media with 1% serum. Cells were then washed with PBS and incubated in media with 10% serum. At indicated times, cells were fixed in 4% paraformaldehyde and then stained with DAPI. Cells were imaged using a Nikon MR confocal microscope.

OE19 tumour xenografts [4] = test: Immunohistochemistry of tumour xenografts (pHistone H3, cleaved caspase 3); format: in vivo, mice; conditions: after Cy5-labelled C-MMAE or T-MMAE i.v.
Protocol: (§4) Tissue sections were cut from blocks of formalin-fixed paraffin embedded xenografts. Four micron thick tissue sections were stained with antibodies to phosphohistone H3 (pH3, Abcam, catalogue number ab32107) and cleaved caspase-3 (C1C3, Cell Signaling Technology, catalogue number 9661) and used at dilutions of 1:300 and 1:900, respectively. Slides were stained on a Ventana Discovery Ultra (Ventana Medical Systems, Tucson, Ariz., USA). Antigen retrieval was performed using CC1 for 24-40 min at 95° C. The primary antibodies were incubated on the sections for 1 h at 37° C. Primary antibodies were visualized used DAB as a chromagen using the UltraMap system (Ventana Medical systems) followed by hematoxylin as a counterstain. Slides were rinsed, dehydrated through alcohol and xylene and coverslipped.
(§5) Immununostained slides were scanned using an Axio Scan.Z1 (Zeiss; Oberkochen, Germany). […] Whole-slide images were imported into Definiens Software for quantitative analysis (Definiens; Munich, Germany). […] For analysis of pH3 (a nuclear stain), the total number of nuclei and the total number of nuclei showing DAB staining (pH3 positive cells) were recorded within each ROI. The percent of positive nuclei was then calculated for each sample. For analysis of C1C3 (a cytoplasmic stain), mean DAB chromagen intensity was measured and calculated within the ROI for each sample.

[5] = test system: CAL-27 (EGRF+) and OE19 (HER2+) cells; test: Alamar Blue cell viability assay; format: cell-based, human; conditions: dose range, 72-96 h
EGFR+ tumour xenografts = test: Immunohistochemistry of tumour xenografts (pS10 histone H3); format: in vivo, mice; conditions: harvested 24 h after injection; compared with cetuximab
Protocol: as §4, §5

CAL-27 (EGFR+) cells = test: Cy5 fluorescence imaging of Cy5-labelled ADC (confocal); format: cell-based, human; conditions: 2 nM Cy5-labelled C-MMAE; by 30 min
Protocol: as §3

OE19 cells = test: Cell cycle (propidium iodide, flow cytometry); format: cell-based, human; conditions: treated overnight
Protocol: Cells were treated with RNAse, stained with propidium iodide (PI) and analysed by FACS using FloJo software.

[6] = test system: HER2 expressing cell lines, OE19, CALU3, and BT474; test: ADC cell binding (cell surface, flow cytometry); parameters: species or system human; conditions: on ice, increasing concentrations, Cy5 signal
Protocol: Cells were collected and resuspended in cold PBS with 5% BSA. Cy5-labelled cetuximab-MMAE or trastuzumab-MMAE was added to the cells at indicated concentrations for 15 min on ice. Cells were washed, resuspended in PBS with 5% BSA and 0.5 ml propidium iodide, and analysed by flow cytometry.

OE19 cells (HER2+) = test: Neutral comet assay; format: cell-based, human; conditions: 6 Gy, 2 nM overnight
Protocol: as §1

OE19 tumour xenografts [7] = test: In vivo tumour xenograft optical imaging (Cy5); parameters: species or system mice
Protocol: as §2

CAL-27 cells = test: ADC cell binding (cell surface, flow cytometry); parameters: species or system human; conditions: on ice, increasing concentrations, Cy5 signal
[8] = test system: HER2 expressing cell lines CALU3, OE19 and BT474; test: Cy5 fluorescence imaging of Cy5-labelled ADC (confocal), HER2 panel; format: cell-based, human; conditions: 2 nM Cy5-labelled ADC, 2 h
Protocol: as §3

[9] = test system: OE19 (HER2+) tumour xenografts; test: In vivo tumour xenograft experiments (tumour growth); parameters: species or system mice; conditions: for Tumour doubling time in days (mean, 95% CI): OE19
Text: (§6) Mice were assigned to indicated groups in ‘Results’.

[10] = Blood clearance (loss of Cy5 fluorescence in the blood); format: in vivo, mice; conditions: Cy5-labelled T-MMAE i.v.
Protocol: as §2

HER2− cell lines = test: Neutral comet assay; format: cell-based, human; conditions: HER2− cells; 20 nM overnight, 2 Gy
Protocol: as §1

HER2+ cell lines = test: Neutral comet assay; format: cell-based, human; conditions: HER2+ cells; 20 nM overnight, 2 Gy
Protocol: as §1

[11] = test system: NCI N87 (HER2+) tumour xenografts; test: In vivo tumour xenograft experiments (tumour growth); parameters: species or system mice
Text: as §6

[12] = test system: HCT116 (HER2−) tumour xenografts; test: as above; parameters: species or system mice
Text: as §6

[13] = 0.25 nmol i.v. day 0 + IR 2.5 Gy days 1, 2 and 3

C-MMAE: monomethyl auristatin E conjugated to cetuximab via maleimidocaproyl-valine-citrulline linker, labelled with Cy5
comet tail length after irradiation [1]: increased comet tail length to a similar degree
tumour MMAE concentrations (CAL-27 xenografts): confirmed restriction of released drug to EGFR+cells by cetuximab conjugation as opposed to trastuzumab conjugation
Cy5 signal accumulation in tumours (low EGFR LN-229 tumours): did not
time of Cy5 signal accumulation in tumour xenografts after injection ([2]; 0.5 nmol Cy5-labelled C-MMAE i.v.): up to 72 h
influence of irradiation on ADC accumulation in tumours ([2]; 3 Gy 24 h after injection, imaged 24 h post IR): did not appreciably influence C-MMAE accumulation in tumours
binding by Cy5 fluorescence [3]: bound to EGFR expressing CAL-27, A549 and CALU3 cells with decreasing affinity
pS10 of Histone H3 (G2/M marker) in tumours (OE19 tumour xenografts [4]): blocked MMAE anti-tubulin activity
cytotoxicity (cell viability) [5]: restricted MMAE cytotoxicity to EGFR or HER2 expressing cells, respectively, and were much more potent than antibodies alone
accumulation in G2/M by pS10 Histone H3 staining (EGFR+ tumour xenografts): increased accumulation in G2/M
Cy5 fluorescence localization (CAL-27 (EGFR+) cells): localized to the cell surface and also was internalized
cell cycle profile (G2/M) (OE19 cells): did not influence the cell cycle profile

T-MMAE: monomethyl auristatin E conjugated to trastuzumab via maleimidocaproyl-valine-citrulline linker, labelled with Cy5
cell surface binding [6]: dose-dependent binding
comet tail length after irradiation (OE19 cells (HER2+)): further increased comet tail length
comet tail length after irradiation [1]: increased comet tail length to a similar degree
tumour MMAE concentrations (CAL-27 xenografts): confirmed restriction of released drug to EGFR+cells by cetuximab conjugation as opposed to trastuzumab conjugation
Cy5 signal accumulation within tumours (OE19 tumour xenografts [7]; 0.5 nmol Cy5-labelled ADC i.v., imaged 48 h later): greater Cy5 signal accumulation within tumours compared with C-MMAE
Cy5 fluorescence localization in sectioned tumour xenografts (OE19 tumour xenografts [7]; 0.5 nmol Cy5-labelled T-MMAE i.v.): localized to areas of tumour cells and not stroma
pS10 of Histone H3 (G2/M marker) in tumours (OE19 tumour xenografts [4]): increased pS10 of Histone H3 in tumours
cell surface binding (CAL-27 cells): not
binding by Cy5 fluorescence [8]: high affinity
tumour growth ([9]; single dose of 1 nmol, compared with control or trastuzumab by day 14): equally efficacious in slowing tumour growth
pharmacokinetics (loss of Cy5 fluorescence in the blood) [10]: comparable to that of similar Cy5-labelled antibody alone

trastuzumab: recombinant humanized anti-HER2 monoclonal antibody
radiosensitization (IR induced DNA double-strand breaks) (HER2− cell lines): did not result in any significant radiosensitization
radiosensitization (IR induced DNA double-strand breaks) (HER2+ cell lines): did not result in any significant radiosensitization
Tumour doubling time in days (mean, 95% CI) [11, 13]: 19 (16-22) days
Tumour doubling time in days (mean, 95% CI) ([11]; 0.25 nmol i.v. day 0, no IR): 14 (10-21) days
Tumour doubling time in days (mean, 95% CI) [12, 13]: 7 (5-12) days
Tumour doubling time in days (mean, 95% CI) ([12]; 0.25 nmol i.v. day 0, no IR): 4 (2-8) days
Tumour doubling time in days (mean, 95% CI) [9, 13]: 14 (10-24) days
Tumour doubling time in days (mean, 95% CI) ([9]; 0.25 nmol i.v. day 0, no IR): 6 (4-8) days
